Calls of active or inactive are those of the source.
Tests used:
[1] = biological target: Sodium/potassium-transporting ATPase subunit alpha-4 (Rattus norvegicus) (UniProt Q64541); test: Inhibition of Na+/K+-ATPase alpha4 in Long Evans rat cauda epididymis sperm assessed as reduction in sperm curvilinear velocity at 10^-12 to 10^-4 M after 1 hr by SYTO staining based microscopic method
[2] = biological target: Sodium/potassium-transporting ATPase subunit alpha-4 (Rattus norvegicus) (UniProt Q64541); details: Long Evans, 10^-8 M
[3] = biological target: Sodium/potassium-transporting ATPase subunit alpha-4 (Rattus norvegicus) (UniProt Q64541); details: Long Evans, 10^-8 M; remark: listed apart in the source
[4] = biological target: Sodium/potassium-transporting ATPase subunit alpha-4 (Rattus norvegicus) (UniProt Q64541); test: Inhibition of Na+/K+-ATPase alpha4 in Long Evans rat cauda epididymis sperm assessed as reduction in sperm beat cross frequency at 10^-12 to 10^-4 M after 1 hr by SYTO staining based microscopic method
[5] = biological target: Sodium/potassium-transporting ATPase subunit alpha-4 (Rattus norvegicus) (UniProt Q64541); test: Inhibition of Na+/K+-ATPase alpha4 in Long Evans rat cauda epididymis sperm assessed as reduction in sperm average path velocity at 10^-12 to 10^-4 M after 1 hr by SYTO staining based microscopic method
[6] = biological target: Sodium/potassium-transporting ATPase subunit alpha-4 (Rattus norvegicus) (UniProt Q64541); test: Inhibition of Na+/K+-ATPase alpha4 in Long Evans rat cauda epididymis sperm assessed as reduction in sperm motility at 10^-8 M preincubated for 1 hr followed by compound washout measured up to 2 hrs by SYTO staining based microscopic method
Summary of the method: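 Rat cauda epididymal sperm in modified Tyrode's medium were treated with or without compound. Motility was measured by SYTO 21/CASA before and after three washes in modified Tyrode's medium, at times up to 2 h. Values are mean ± SEM of three determinations.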

Sequences of proteins named here, by UniProt entry; tags and fusion partners are left off.
UniProt Q64541, whole entry: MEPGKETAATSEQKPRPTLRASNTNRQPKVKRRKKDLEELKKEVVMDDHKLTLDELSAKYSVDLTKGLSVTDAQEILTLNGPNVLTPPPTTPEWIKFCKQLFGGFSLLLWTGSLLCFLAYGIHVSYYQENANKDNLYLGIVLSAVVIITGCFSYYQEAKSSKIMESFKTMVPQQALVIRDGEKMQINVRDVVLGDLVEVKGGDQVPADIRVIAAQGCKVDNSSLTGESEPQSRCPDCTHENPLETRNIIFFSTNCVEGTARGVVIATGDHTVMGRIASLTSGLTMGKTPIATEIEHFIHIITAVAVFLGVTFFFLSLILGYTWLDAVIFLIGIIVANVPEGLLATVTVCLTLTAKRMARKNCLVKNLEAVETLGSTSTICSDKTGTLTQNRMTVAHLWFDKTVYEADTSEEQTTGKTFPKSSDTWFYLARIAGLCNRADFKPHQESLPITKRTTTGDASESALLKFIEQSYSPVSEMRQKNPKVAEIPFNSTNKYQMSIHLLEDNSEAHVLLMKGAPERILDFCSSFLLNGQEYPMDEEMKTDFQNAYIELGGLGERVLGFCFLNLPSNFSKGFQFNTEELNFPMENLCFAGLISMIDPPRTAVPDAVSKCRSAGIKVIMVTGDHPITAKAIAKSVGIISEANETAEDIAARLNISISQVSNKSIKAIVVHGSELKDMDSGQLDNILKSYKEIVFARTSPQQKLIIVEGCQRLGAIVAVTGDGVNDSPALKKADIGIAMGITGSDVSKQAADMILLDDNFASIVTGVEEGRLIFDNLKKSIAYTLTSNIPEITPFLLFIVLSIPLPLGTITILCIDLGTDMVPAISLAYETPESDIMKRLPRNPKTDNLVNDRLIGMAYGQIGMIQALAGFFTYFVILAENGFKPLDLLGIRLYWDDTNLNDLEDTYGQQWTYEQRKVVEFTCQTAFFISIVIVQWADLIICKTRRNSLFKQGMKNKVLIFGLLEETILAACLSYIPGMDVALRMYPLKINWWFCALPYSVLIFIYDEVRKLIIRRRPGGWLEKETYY

[7] = biological target: Sodium/potassium-transporting ATPase subunit alpha-4 (Rattus norvegicus) (UniProt Q64541); test: Inhibition of Na+/K+-ATPase alpha4 in Long Evans rat cauda epididymis sperm assessed as reduction in sperm average path linearity at 10^-12 to 10^-4 M after 1 hr by SYTO staining based microscopic method
[8] = biological target: Sodium/potassium-transporting ATPase subunit alpha-4 (Rattus norvegicus) (UniProt Q64541); test: Inhibition of Na+/K+-ATPase alpha4 in Long Evans rat cauda epididymis sperm assessed as reduction in total sperm motility at 10^-12 to 10^-4 M after 1 hr by SYTO staining based microscopic method
[9] = biological target: Sodium/potassium-transporting ATPase subunit alpha-4 (Rattus norvegicus) (UniProt Q64541); test: Inhibition of Na+/K+-ATPase alpha4 in Long Evans rat cauda epididymis sperm assessed as reduction in sperm progressive motility at 10^-12 to 10^-4 M after 1 hr by SYTO staining based microscopic method
[10] = biological target: Sodium/potassium-transporting ATPase subunit alpha-4 (Rattus norvegicus) (UniProt Q64541); test: Inhibition of Na+/K+-ATPase alpha4 in Long Evans rat cauda epididymis sperm assessed as reduction in sperm straight line velocity at 10^-12 to 10^-4 M after 1 hr by SYTO staining based microscopic method
[11] = biological target: Sodium/potassium-transporting ATPase subunit alpha-4 (Rattus norvegicus) (UniProt Q64541); details: Long Evans, 10^-8 M; remark: listed apart in the source

Measured: inhibition

C[C@]12C[C@@H](O)[C@H]3[C@@H](CC[C@]4(O)C[C@@H](O)C[C@@H](O)[C@]34CO)[C@@]1(O)CC[C@@H]2c1cn(Cc2ccccc2)nn1
active: [1] | [2] | [4] | [5] | [6] | [7] | [8] | [9] | [10] | [11] Tde
70%: [3]

Reference: ChEMBL document CHEMBL4033781 (J Med Chem, 2018)
